Protein sequences, listed by entry. Tags and fused reporters are not part of them.
UniProt P40763, whole entry: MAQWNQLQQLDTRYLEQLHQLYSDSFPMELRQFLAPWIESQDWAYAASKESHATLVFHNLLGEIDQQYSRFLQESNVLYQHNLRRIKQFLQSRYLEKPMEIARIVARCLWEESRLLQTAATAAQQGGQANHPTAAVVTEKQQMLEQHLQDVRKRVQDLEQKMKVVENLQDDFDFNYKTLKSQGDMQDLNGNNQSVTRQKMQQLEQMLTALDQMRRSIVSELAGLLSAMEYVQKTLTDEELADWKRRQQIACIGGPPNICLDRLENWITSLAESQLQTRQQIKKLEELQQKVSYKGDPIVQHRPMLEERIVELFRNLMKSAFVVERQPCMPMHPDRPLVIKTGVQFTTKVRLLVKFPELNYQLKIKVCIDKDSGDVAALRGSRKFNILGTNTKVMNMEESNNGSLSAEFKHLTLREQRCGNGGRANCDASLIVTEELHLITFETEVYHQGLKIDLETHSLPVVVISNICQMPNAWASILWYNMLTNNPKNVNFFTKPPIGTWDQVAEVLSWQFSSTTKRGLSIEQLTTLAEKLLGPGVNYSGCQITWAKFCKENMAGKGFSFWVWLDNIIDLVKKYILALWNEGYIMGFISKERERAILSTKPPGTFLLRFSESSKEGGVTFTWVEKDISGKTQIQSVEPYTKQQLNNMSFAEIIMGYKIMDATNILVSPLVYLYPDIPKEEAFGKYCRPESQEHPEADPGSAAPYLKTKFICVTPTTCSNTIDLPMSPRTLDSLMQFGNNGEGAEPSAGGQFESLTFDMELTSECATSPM

In ChEMBL document CHEMBL2169778, “Small molecule inhibitors of signal transducer and activator of transcription 3 (Stat3) protein” (J Med Chem, 2012):

What was measured:
[1] = target: T1, Signal transducer and activator of transcription 3 (Homo sapiens, UniProt P40763); test: Inhibition of recombinant STAT3 assessed as inhibition of STAT3-phosphododecapeptide interaction by SPR analysis
[2] = target: T1, Signal transducer and activator of transcription 3

| Compound | IC50 [1] [µM] | IC50 [2] [µM] |
| --- | --- | --- |
| CCN1C(=O)/C(=C/c2ccc(-c3ccc(C(=O)O)cc3)o2)SC1=S | 30 | – |
| C[C@H]1COC2=C1C(=O)C(=O)c1c2ccc2c1CCCC2(C)C [CRYPTOTANSHINONE] | – | 4.6 |
